Among the data in ChEMBL document CHEMBL3632504, “Discovery of 1H-pyrazolo[3,4-b]pyridines as potent dual orexin receptor antagonists (DORAs)” (Bioorg Med Chem Lett, 2015) are Ki values, retold here.

By UniProt entry, the sequences of proteins in these tests, tags left out.
UniProt O43614, whole entry: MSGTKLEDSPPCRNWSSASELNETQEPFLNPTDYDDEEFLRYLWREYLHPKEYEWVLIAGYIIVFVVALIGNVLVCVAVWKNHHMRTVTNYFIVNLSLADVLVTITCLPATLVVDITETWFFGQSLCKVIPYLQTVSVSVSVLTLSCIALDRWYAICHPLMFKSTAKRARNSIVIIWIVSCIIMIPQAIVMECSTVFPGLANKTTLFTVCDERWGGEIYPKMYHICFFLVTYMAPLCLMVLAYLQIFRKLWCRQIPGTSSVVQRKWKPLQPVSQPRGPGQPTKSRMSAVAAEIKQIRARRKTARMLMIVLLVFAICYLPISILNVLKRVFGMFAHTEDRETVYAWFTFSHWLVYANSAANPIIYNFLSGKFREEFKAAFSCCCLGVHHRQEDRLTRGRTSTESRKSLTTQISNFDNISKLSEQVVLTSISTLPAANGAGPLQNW

The structures appear in SMILES notation.

For orientation: Ki means the dissociation constant of the complex between target and ligand, obtained from inhibition or displacement. A high value points to a looser hold on the target.

The target in the test is Orexin receptor type 2 (Homo sapiens, UniProt O43614). Put plainly: Displacement of [125l]orexin A from human orexin 2 receptor expressed in CHO cells after 1 hr. The class given is cell-based.

Compound `Cc1n[nH]c(C)c1[C@H](C)NC(=O)COc1cc(C(F)(F)F)c2c(-c3ccccc3)nn(C)c2n1` showed a Ki of 8 nM.
